These are literature values, as cited in patent publication US4748177A, “Guanine derivatives” (Warner-Lambert Company, priority 1985, dated 1988).

In this data set the test system is PNP. The following applies: Biochem. Pharm., 31 (2), 163 (1982); cited from earlier work.

Structures are written as SMILES.

Regarding `Nc1nc2nc(N)[nH]c2c(=O)[nH]1` [8-Aminoguanine], the PNP-activity result is recorded as “PNP-activity”.
